## Antibody variant affinities, Ab-91 heavy chain, assay 2

From the AlphaSeq antibody data of Engelhart et al. 2022 (doi:10.1038/s41597-022-01779-4), copy in the FLAb collection.

Antigen: PDVDLGDISGINAS, a 14-residue peptide of the SARS-CoV-2 spike HR2 region.

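The starting antibody came from a phage panning campaign against this peptide. Library AAYL51 holds single substitutions and randomly drawn double and triple substitutions in the CDRs. The scFvs were displayed on barcoded MATa yeast, the peptide on MATalpha yeast. Pairs that bind mate more often; barcode pairs of the diploids are counted by sequencing. The ratio of observed to expected reads was calibrated, replicate by replicate, on BCL2-family standards whose Kd was known from biolayer interferometry. Mating was done three times.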

Each scFv is VL, three GGGGS repeats, VH, as in the parent Ab-91, and differs from it in the CDRs of the heavy chain only.
VL: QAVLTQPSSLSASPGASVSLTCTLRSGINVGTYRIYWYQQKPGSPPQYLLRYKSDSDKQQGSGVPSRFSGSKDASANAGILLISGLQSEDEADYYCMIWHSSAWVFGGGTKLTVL
VH: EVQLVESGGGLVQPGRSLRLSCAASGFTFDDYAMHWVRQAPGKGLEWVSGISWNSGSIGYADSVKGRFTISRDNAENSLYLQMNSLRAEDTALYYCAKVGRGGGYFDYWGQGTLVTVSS

Changes read parent residue, position, new residue, counted from the first residue of the VH shown. Numbers give log10(Kd / nM), so 0 is 1 nM and 3 is 1 µM. Smaller is tighter. The mean shown is taken over the replicates in which the pair was detected. A pair that was not seen in any replicate is written "no signal"; this usually means weak binding, but a binder can also be missed. Background: pairings of library AAYL51 with three empty control strains gave a value in 21% of cases (median 4.54, 5th percentile 3.26). Values in that range, when seen in few replicates, are hard to tell from nonspecific mating.

| mean log10 Kd (nM) | replicates with signal | changes |
|---|---|---|
| 5.44 | 2 of 3 | S55R I58E D107T |
| 1.14 | 3 of 3 | D31S G102D D107Q |
| no signal | 0 of 3 | A33V H35N |
| 4.54 | 1 of 3 | G26W M34C D62W |
| no signal | 0 of 3 | Y60L S63H K65P |
| no signal | 0 of 3 | D30V F106Y D107R |
| no signal | 0 of 3 | Y32R M34H G59L |
| 1.32 | 3 of 3 | G56E A61M V64I |
| no signal | 0 of 3 | F29S G56S S57H |
| no signal | 0 of 3 | A33Y A61D V64W |
| no signal | 0 of 3 | W53G G59W R101I |
| 4.75 | 1 of 3 | T28K D62M G102S |
| 5.58 | 2 of 3 | D31W H35K D107A |
| 5.00 | 1 of 3 | F29Q A33R R101K |
| no signal | 0 of 3 | G26W S63C |
| no signal | 0 of 3 | A61I D62T V64N |
| 5.59 | 1 of 3 | I51T S63K G102Q |
| no signal | 0 of 3 | H35C I51G |
| no signal | 0 of 3 | D31E V64K F106T |
| no signal | 0 of 3 | M34Q S52L D62T |
| no signal | 0 of 3 | A33L N54I G56H |
| 4.54 | 1 of 3 | S52F G56V G103L |
| 5.14 | 1 of 3 | Y60F F106E D107A |
| no signal | 0 of 3 | H35K G50K G103F |
| no signal | 0 of 3 | F27C R101Y G104L |
| no signal | 0 of 3 | G50W N54Q S55D |
| 4.44 | 2 of 3 | I51C G56T Y108E |
| no signal | 0 of 3 | D30M S57N |
| no signal | 0 of 3 | G50M S57P |
| 5.05 | 1 of 3 | G26L D62H Y105R |
| no signal | 0 of 3 | F27E I51H G104I |
| no signal | 0 of 3 | G100V G104V F106D |
| no signal | 0 of 3 | G50F N54Q V64R |
| 5.52 | 1 of 3 | G26P A33G D107C |
| no signal | 0 of 3 | M34R S52M F106S |
| 1.80 | 3 of 3 | D30L G104I |
| 4.42 | 3 of 3 | S63F Y105E Y108T |
| no signal | 0 of 3 | A33P K65D D107F |
| 4.97 | 3 of 3 | G56E S57Y Y60F |
| no signal | 0 of 3 | S63I V64L |
| no signal | 0 of 3 | A61C S63R G104H |
| 5.37 | 2 of 3 | F27S A33G A61P |
| 5.26 | 2 of 3 | V64Q D107N Y108D |
| 4.87 | 1 of 3 | D30A G103T D107F |
| 1.85 | 3 of 3 | G56I S57N R101S |
| 4.22 | 1 of 3 | N54W A61P G102F |
| no signal | 0 of 3 | Y32K I51W I58E |
| 2.63 | 1 of 3 | F29W D30I S57G |
| 3.86 | 1 of 3 | Y32Q A61F S63G |
| 1.61 | 3 of 3 | D30P I51V W53F |
| 5.84 | 2 of 3 | Y32C M34T G56W |
| no signal | 0 of 3 | F29Q S52L G59K |
| no signal | 0 of 3 | Y60Q R101T D107C |
| 5.19 | 1 of 3 | M34L H35Q D107N |
| 4.72 | 1 of 3 | A33H N54K Y108I |
| no signal | 0 of 3 | D30E Y32H S63A |
| 5.53 | 1 of 3 | G100V F106H |
| no signal | 0 of 3 | T28P G100T |
| no signal | 0 of 3 | A33E S55D S57W |
| 1.42 | 3 of 3 | D31Y S63G V64L |
| 5.00 | 1 of 3 | T28L W53E F106R |
| 5.28 | 2 of 3 | S52K Y60A K65H |
| no signal | 0 of 3 | H35L D62C |
| 4.67 | 2 of 3 | Y60P A61H |
| no signal | 0 of 3 | T28G S55C R101A |
| no signal | 0 of 3 | G50C S57H F106I |
| no signal | 0 of 3 | N54H G59T G102S |
| no signal | 0 of 3 | D31L S63C G100I |
| no signal | 0 of 3 | T28S H35Y G102S |
| 3.41 | 3 of 3 | F29P D62K Y108Q |
| 4.79 | 1 of 3 | H35Q Y108N |

A selection of 6 entries from above:

{"changes": "D31E V64K F106T", "mean log10 Kd (nM)": "no signal", "replicates with signal": "0 of 3"}
{"changes": "F29Q S52L G59K", "mean log10 Kd (nM)": "no signal", "replicates with signal": "0 of 3"}
{"changes": "Y32R M34H G59L", "mean log10 Kd (nM)": "no signal", "replicates with signal": "0 of 3"}
{"changes": "D30P I51V W53F", "mean log10 Kd (nM)": "1.61", "replicates with signal": "3 of 3"}
{"changes": "D30M S57N", "mean log10 Kd (nM)": "no signal", "replicates with signal": "0 of 3"}
{"changes": "G50M S57P", "mean log10 Kd (nM)": "no signal", "replicates with signal": "0 of 3"}

In this assay the parent's reference entry averaged 1.86; its copy inside this library read 0.88.